Binding of CDR-mutated scFvs to a peptide of the spike HR2 region

Binding partner: SARS-CoV-2 spike HR2 peptide, sequence PDVDLGDISGINAS.

Parent: Ab-95, a human scFv built as VH, a 15-residue (Gly4Ser)3 linker, VL. Only the CDRs of the light chain vary.
VH: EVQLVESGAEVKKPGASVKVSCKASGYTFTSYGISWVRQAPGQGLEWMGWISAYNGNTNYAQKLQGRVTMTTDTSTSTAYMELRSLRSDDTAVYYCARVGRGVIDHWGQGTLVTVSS
VL: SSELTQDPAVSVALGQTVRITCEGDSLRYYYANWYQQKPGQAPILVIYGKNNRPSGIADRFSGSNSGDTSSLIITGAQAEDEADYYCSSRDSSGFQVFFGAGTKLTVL

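The starting antibody came from a phage panning campaign against this peptide. The library (AAYL52) carries one to three amino acid substitutions per variant, with no insertions or deletions. AlphaSeq pools MATa yeast showing the antibodies with MATalpha yeast showing the peptide. After mating in shaken culture at 30 °C for 16 h, diploids were selected and their barcode pairs sequenced. The ratio of observed to expected reads was calibrated, replicate by replicate, on BCL2-family standards whose Kd was known from biolayer interferometry. Mating was done three times.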

The parent's light chain CDRs are EGDSLRYYYAN, GKNNRPS, SSRDSSGFQVF; each variant's own CDRs replace them letter for letter.
Every variant below is changed at S26 of the VL (sequential numbering).
The Kd shown is the geometric mean over detected replicates; a lower Kd is a better binder.
A pair that was not seen in any replicate is written "nd"; this usually means weak binding, but a binder can also be missed.
Order: sorted from the lowest average up, undetected variants last.
Nonspecific signal, from three strains lacking the peptide, appeared in 28% of pairings of library AAYL52, centred on 8.2 µM (5% of these signals below 800 nM); values are not corrected for it. The control count says in how many pairings with the empty strains this scFv gave a signal.

CDR-L1,CDR-L2,CDR-L3,apparent Kd,seen in,control signals
EGDHLRAVYAN,GKNNRPS,SSRDSSGFQVF,33 nM,3 of 3,0 of 9
EADGMRYYYAN,GKNNRPS,SSRDSSGFQVF,190 nM,3 of 3,4 of 9
EGDYLRYYYAN,GKENRPS,SGRDSSGFQVF,200 nM,3 of 3,4 of 9
EGDFLRYYCAN,GKNNRPL,SSRDSSGFQVF,210 nM,3 of 3,4 of 9
EGDNLRYYPAN,AKNNRPS,SSRDSSGFQVF,290 nM,3 of 3,1 of 9
QGDGLRIYYAN,GKNNRPS,SSRDSSGFQVF,600 nM,3 of 3,4 of 9
EGDKLRYEYAN,GKNNRPS,SSRDSSGFQVF,630 nM,3 of 3,3 of 9
EGDGLRYYYAN,GKNRRPS,ASRDSSGFQVF,700 nM,3 of 3,2 of 9
EGDYLRYYYAN,GKNNRPS,DSRDSSGFWVF,980 nM,2 of 3,1 of 9
EGDRLRYGYAN,GKNNRPS,SRRDSSGFQVF,1.0 µM,3 of 3,3 of 9
EGDYLRYYYAN,GKNNRPS,SSRDSSKFQVF,1.2 µM,2 of 3,1 of 9
EGDQLRYYTAN,GKNNRPS,SSRDSSGKQVF,1.3 µM,1 of 3,1 of 9
EGDFLRYYYAN,GKNNRPS,SSRDSSGFQVF,1.7 µM,1 of 3,3 of 9
EGSDLRYYYAN,GKNNRPS,SSRDSSSFQVF,1.9 µM,3 of 3,3 of 9
EGDVLRYYYAN,GKNNRPS,SSRDSSGFQVF,1.9 µM,3 of 3,2 of 9
EGDDCRYYYAN,GKNSRPS,SSRDSSGFQVF,2.5 µM,3 of 3,3 of 9
EGDMLRMYYAN,GKNNRPS,SSRDSSPFQVF,2.7 µM,2 of 3,5 of 9
EGLDLRYYYAN,GKNNRPS,SSRDSSGHQVF,3.0 µM,1 of 3,1 of 9
EEDRLRYYYAN,YKNNRPS,SSRDSSGFQVF,3.4 µM,1 of 3,4 of 9
EGDQLRYYYAN,FKNNRPN,SSRDSSGFQVF,3.4 µM,2 of 3,7 of 9
EEDNLRYYYAN,GLNNRPS,SSRDSSGFQVF,3.5 µM,1 of 3,4 of 9
EGDMLRYYYAN,PKNNRPS,SSRPSSGFQVF,6.9 µM,1 of 3,4 of 9
EYDNLRYYYAN,GKNNYPS,SSRDSSGFQVF,9.1 µM,2 of 3,2 of 9
EGDILRYYYAN,GKNNRPS,SDRDSSGFQPF,9.6 µM,1 of 3,2 of 9
EGDYLRYYYAH,GKNNCPS,SSRDSSGFQVF,11 µM,2 of 3,3 of 9
EGDDLRYYYAN,GYNNRPS,SSRDSSGFQVP,11 µM,1 of 3,2 of 9
EGDPLRYYYNN,GCNNRPS,SSRDSSGFQVF,13 µM,3 of 3,3 of 9
EGDALRYYYLN,GKNNRPS,SSCDSSGFQVF,15 µM,3 of 3,4 of 9
AGDWLRYYYAN,GKNNRPS,FSRDSSGFQVF,17 µM,1 of 3,0 of 9
EGDELRYYYAN,GKNNRPS,SSRDSSEFQVF,18 µM,1 of 3,2 of 9
EGDFLRYYYAM,GKNNRPD,SSRDSSGFQVF,24 µM,2 of 3,1 of 9
EGDQLRYYYAN,GKNNRPS,HSRDSSGFQVF,25 µM,1 of 3,2 of 9
EGDGLRYYYAN,GKTNRPS,SSRYSSGFQVF,32 µM,1 of 3,5 of 9
EGDKLCYYYAN,IKNNRPS,SSRDSSGFQVF,43 µM,2 of 3,4 of 9
EGDNLRYYYAN,EKNNRPS,SSRDSSAFQVF,67 µM,2 of 3,5 of 9
EGDKLRYYYAN,GKNARPS,SSRDHSGFQVF,97 µM,2 of 3,4 of 9
EGDCLRYYYAN,GKNVRPS,SSRDSSGFQVF,240 µM,1 of 3,1 of 9
EDDDLRYYYSN,GKNNRPS,SSRDSSGFQVF,nd,0 of 3,1 of 9
ETDWLRYYYAN,GKNNRPS,SSRDSIGFQVF,nd,0 of 3,0 of 9
EGDNLRYYYAN,GKNNRPS,SSRDSSEFQVF,nd,0 of 3,1 of 9
EGDRLRYYYAN,GKNNDPS,QSRDSSGFQVF,nd,0 of 3,0 of 9
EGDILRYYYAN,GKNNRPS,SSRDCSGFPVF,nd,0 of 3,0 of 9
EGDLLRYYYAN,GKNNRIE,SSRDSSGFQVF,nd,0 of 3,3 of 9
EGDGLRKYYAN,GKNNRPS,SSRDSSEFQVF,nd,0 of 3,3 of 9
EGDELRYYYAN,GKNARPS,SSRDSSGHQVF,nd,0 of 3,3 of 9
WGDGLRYYYAN,GKNNRPS,SSRDSSGFQWF,nd,0 of 3,2 of 9
EGDTLRYYYAN,WKNNRIS,SSRDSSGFQVF,nd,0 of 3,0 of 9
EGDELRYYYEN,GKNNRPS,STRDSSGFQVF,nd,0 of 3,2 of 9

5 of these entries, quoted again:

CDR-L1,CDR-L2,CDR-L3,apparent Kd,seen in,control signals
ETDWLRYYYAN,GKNNRPS,SSRDSIGFQVF,nd,0 of 3,0 of 9
EGDALRYYYLN,GKNNRPS,SSCDSSGFQVF,15 µM,3 of 3,4 of 9
EYDNLRYYYAN,GKNNYPS,SSRDSSGFQVF,9.1 µM,2 of 3,2 of 9
EGDELRYYYEN,GKNNRPS,STRDSSGFQVF,nd,0 of 3,2 of 9
EGDGLRKYYAN,GKNNRPS,SSRDSSEFQVF,nd,0 of 3,3 of 9

Source: Engelhart et al. 2022 (doi:10.1038/s41597-022-01779-4), MIT Lincoln Laboratory and A-Alpha Bio; data file from the FLAb repository.